In patent US8106031B2, “Hydrolytically-resistant boron-containing therapeutics and methods of use” (Anacor Pharmaceuticals, Inc., priority 2006, dated 2012):

System: Cryptococcus neoformans
Assay: MIC against C. neoformans (NCCLS broth dilution)
Format: cell-based
Conditions: 19a relative to 9a, 19b relative to 9b
Source text: To determine the antifungal activity of these compounds we screened for their minimum inhibitory concentrations (MIC) against the major dermatophytes that cause onychomycosis, T. rubrum and T. mentagrophytes, and against the yeasts and molds C. albicans, C. neoformans and A. fumigatus to test for their broad spectrum activity. The antifungal agent ciclopirox, currently in use for the topical treatment of onychomycosis, was used as a reference.
All MIC testing against Trichophyton rubrum, Trichophyton mentagrophytes, Candida albicans, Cryptococcus neoformans and Aspergillus fumigatus were determined following the National Committee for Clinical Laboratory Standards (NCCLS) guidelines for antimicrobial testing of yeasts and filamentous fungi.^i,ii
Two-fold serial dilutions of the test compounds were prepared in 96-well plates. […] Pfaller M A, Chaturvedi V, Espinel-Ingroff A, Ghannoum M A, Gosey L L, Odds F C, Rex J H, Rinaldi M G, Sheehan D J, Walsh T J, Warnock D W. NCCLS publication M27-A2—Reference Method for Broth Dilution Antifungal Susceptibility Testing of Yeasts; Approved Standard—Second Edition. […] Pfaller M A, Chaturvedi V, Espinel-Ingroff A, Ghannoum M A, Gosey L L, Odds F C, Rex J H, Rinaldi M G, Sheehan D J, Walsh T J, Warnock D W. NCCLS publication M38-A—Reference Method for Broth Dilution Antifungal Susceptibility Testing of Filamentous Fungi; Approved Standard.

SMILES: OB1OCc2ccccc21 [19a, 1,3-Dihydro-1-hydroxy-2,1-benzoxaborole]
- fold increase in activity against C. neoformans: 8 fold
